# Measured values reported in publication PMC13181292, “Receptor homodimerization significantly prolongs the lifetime of ligand-induced cross-linking of CLEC-2 but not GPVI” (Blood Vessels, Thrombosis & Hemostasis, 2026).
# B1: monomeric C-type lectin-like domain of CLEC-2 (extracellular domain residues 55-229) (domain or fragment, UniProt Q9P126 55-229, looked up)
# chain: SVMQRNYLQGENENRTGTLQQLAKRFCQYVVKQSELKGTFKGHKCSPCDTNWRYYGDSCYGFFRHNLTWEESKQYCTDMNATLLKIDNRNIVEYIKARTHLIRWVGLSRQKSNEVWKWEDGSVISENMFEFLEDGKGNMNCAYFHNGKMHPTFCENKHYLMCERKAGMTKVDQLP
# notes: C-type lectin-like receptor 2 (CLEC-2), extracellular domain residues 55-229 with the C-type lectin-like domain; recombinant, monomeric (no Fc); also called recombinant monomeric CLEC-2; monovalent C-type lectin-like domain of CLEC-2
# Target: the molecule itself
# Test: SPR; the monomeric recombinant domain flowed over an immobilized surface of itself; Biacore T200, kinetic analysis with a global fitting model; n = 3
protein,measurement,value
B1,Kd,18.5 µM
